The values below come from patent US20240382677A1 (Regeneron, published 2024).

Test [1] concerns the target T1, recombinant human PD-1 expressed with a C-terminal myc-myc-hexahistidine tag (hPD-1-MMH) (human).
T1 construct: Monomeric PD-1 reagent; also called human PD-1-MMH
As to the kind of experiment: SPR (Biacore), mAb captured, hPD-1-MMH injected, 25 C.

The target in test [2] is T2, recombinant cynomolgus monkey PD-1 expressed with a C-terminal myc-myc-hexahistidine tag (cynomolgus monkey).
T2 construct: also called MfPD-1-MMH; MIPD-1-MMH
T2 chain: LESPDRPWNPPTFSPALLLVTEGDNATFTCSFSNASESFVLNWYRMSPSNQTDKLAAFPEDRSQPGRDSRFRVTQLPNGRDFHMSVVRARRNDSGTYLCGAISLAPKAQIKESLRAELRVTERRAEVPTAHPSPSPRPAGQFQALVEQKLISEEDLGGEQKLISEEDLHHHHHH
The test can be described thus: SPR Biacore, mAb captured, 25 C. For orientation: Surface plasmon resonance follows binding to a sensor surface in real time, without labels.

B1: H4H9019P (antibody, human IgG4, V domains shown)
VH: EVQLVESGGGVVRPGGSLRLSCAASGFTFDDYGMSWVRQVPGKGLEWVSGISWNDGKTVYAESVKGRFIISRDNAKNSLYLEMNSLRAEDTALYYCARDWQYLIERYFDYWGQGTLVTVSS
VL: not shown
notes: Fully human antibody with a human IgG4 Fc (H4H prefix)
By t½ is commonly meant the time in which the quantity being followed falls by half. Turning to B1, in test [1], the t½ was found to be 14 min.

B2: H4H9019P (antibody, human IgG4, V domains shown)
VH: B1 VH
VL: not shown
notes: fully human, human IgG4 Fc (H4H prefix); also called H4xH9019P; H4M9019P
For B2, the t½ in test [2] amounted to 14 min.
